Amino acid sequences for entries named in this document (tags omitted).
UniProt P38859, whole entry D357A/E358A/D361A/D362A/E366A: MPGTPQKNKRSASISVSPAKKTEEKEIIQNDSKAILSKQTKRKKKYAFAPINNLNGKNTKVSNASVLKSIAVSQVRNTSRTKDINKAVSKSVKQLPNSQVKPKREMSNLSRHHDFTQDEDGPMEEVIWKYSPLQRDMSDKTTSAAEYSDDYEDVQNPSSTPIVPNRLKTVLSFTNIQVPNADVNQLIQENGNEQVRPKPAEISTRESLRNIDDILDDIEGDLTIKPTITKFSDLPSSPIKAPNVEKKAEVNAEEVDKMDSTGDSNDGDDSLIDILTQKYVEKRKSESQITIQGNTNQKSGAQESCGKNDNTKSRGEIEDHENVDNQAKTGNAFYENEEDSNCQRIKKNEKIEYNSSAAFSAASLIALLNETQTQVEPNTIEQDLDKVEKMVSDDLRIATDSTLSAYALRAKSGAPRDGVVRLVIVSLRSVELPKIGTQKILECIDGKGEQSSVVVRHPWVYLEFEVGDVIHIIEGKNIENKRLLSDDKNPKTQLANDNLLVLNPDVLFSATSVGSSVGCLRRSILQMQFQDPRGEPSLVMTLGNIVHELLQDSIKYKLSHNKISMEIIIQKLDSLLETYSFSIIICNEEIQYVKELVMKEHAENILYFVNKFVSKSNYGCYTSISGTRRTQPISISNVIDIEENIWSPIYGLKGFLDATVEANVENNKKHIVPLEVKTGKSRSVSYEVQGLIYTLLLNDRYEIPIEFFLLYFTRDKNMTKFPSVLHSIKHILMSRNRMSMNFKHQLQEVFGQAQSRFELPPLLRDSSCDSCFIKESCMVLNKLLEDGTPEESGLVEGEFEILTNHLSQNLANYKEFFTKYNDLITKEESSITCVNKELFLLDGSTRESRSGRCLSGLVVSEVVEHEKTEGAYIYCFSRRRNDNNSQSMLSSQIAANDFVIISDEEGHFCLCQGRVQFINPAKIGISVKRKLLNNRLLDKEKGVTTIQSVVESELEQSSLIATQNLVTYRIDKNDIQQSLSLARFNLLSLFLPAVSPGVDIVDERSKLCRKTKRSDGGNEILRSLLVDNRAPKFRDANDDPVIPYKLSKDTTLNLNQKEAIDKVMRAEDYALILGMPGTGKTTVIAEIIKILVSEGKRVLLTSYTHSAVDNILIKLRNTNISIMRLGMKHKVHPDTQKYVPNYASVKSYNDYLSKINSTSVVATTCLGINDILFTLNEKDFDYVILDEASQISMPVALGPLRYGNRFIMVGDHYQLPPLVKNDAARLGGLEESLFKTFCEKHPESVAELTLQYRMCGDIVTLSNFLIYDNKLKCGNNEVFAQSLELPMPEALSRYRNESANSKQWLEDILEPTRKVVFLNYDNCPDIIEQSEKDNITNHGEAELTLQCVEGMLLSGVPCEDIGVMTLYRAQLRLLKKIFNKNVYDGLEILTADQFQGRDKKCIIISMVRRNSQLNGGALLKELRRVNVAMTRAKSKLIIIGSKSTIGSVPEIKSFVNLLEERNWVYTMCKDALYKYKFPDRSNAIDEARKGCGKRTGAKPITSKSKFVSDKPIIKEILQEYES
UniProt P38859, whole entry D657A: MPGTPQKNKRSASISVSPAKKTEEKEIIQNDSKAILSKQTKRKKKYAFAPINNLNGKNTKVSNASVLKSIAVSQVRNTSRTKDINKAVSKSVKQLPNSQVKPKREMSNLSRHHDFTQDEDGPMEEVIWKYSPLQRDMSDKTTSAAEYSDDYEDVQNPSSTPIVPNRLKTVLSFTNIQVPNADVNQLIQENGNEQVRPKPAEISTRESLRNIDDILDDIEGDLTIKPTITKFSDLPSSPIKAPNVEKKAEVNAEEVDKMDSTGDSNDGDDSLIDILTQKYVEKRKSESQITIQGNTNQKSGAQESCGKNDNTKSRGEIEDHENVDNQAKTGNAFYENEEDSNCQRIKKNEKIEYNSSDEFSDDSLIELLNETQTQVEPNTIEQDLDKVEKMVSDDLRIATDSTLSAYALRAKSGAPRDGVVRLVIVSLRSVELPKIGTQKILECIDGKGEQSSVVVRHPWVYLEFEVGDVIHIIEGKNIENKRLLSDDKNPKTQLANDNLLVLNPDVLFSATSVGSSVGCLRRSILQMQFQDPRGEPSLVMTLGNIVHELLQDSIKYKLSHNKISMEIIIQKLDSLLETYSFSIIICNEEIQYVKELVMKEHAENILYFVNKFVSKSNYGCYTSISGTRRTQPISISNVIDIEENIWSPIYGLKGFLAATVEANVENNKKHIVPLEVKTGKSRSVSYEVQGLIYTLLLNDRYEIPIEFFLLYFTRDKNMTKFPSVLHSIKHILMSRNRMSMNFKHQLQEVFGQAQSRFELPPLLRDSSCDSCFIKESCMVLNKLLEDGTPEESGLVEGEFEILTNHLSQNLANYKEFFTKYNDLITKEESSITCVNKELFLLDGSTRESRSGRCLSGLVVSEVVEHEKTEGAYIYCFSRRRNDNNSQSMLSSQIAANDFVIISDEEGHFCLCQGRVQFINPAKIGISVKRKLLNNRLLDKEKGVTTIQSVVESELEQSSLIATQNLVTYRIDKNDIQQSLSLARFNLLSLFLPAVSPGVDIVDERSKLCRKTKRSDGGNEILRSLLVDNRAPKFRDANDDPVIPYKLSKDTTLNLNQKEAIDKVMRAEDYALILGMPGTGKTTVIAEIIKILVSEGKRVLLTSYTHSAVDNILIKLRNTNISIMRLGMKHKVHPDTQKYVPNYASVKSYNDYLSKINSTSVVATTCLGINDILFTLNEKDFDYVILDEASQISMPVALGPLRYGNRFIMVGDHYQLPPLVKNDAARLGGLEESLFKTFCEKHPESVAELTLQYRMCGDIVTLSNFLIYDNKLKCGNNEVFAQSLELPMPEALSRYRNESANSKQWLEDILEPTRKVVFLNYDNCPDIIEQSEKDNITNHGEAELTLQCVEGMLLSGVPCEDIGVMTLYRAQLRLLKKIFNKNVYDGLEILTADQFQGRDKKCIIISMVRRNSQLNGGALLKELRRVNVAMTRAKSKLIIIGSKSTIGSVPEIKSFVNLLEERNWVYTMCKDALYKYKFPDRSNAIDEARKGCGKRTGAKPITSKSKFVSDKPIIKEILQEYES

According to paper PMC8766458, “Deciphering the mechanism of processive ssDNA digestion by the Dna2-RPA ensemble” (Nature Communications, 2022):

How the values were obtained:
[1] = molecular target: T1, dna2-AC (dna2-D357A,E358A,D361A,D362A,E366A), FLAG-His6-tagged (S. cerevisiae, UniProt P38859, D357A | E358A | D361A | D362A | E366A); test: cell-based or functional assay
[2] = molecular target: T1, dna2-AC …; test: MST; Dna2 or dna2-AC labelled with the His-tag labelling kit RED-tris-NTA, RPA titrated as ligand; 20 mM Tris-HCl pH 8.0, 150 mM NaCl, 5% glycerol, 0.01% NP-40, 1 mM β-mercaptoethanol; 30 °C; no DNA; conditions: both partners purified
[3] = molecular target: T2, Dna2 (wild type, FLAG-His6-tagged) (S. cerevisiae, UniProt P38859); test: as above; conditions: both partners purified
T2 construct: Dna2 nuclease-helicase, Saccharomyces cerevisiae, wild type; Wild-type protein; In DNA Curtains it was labelled with anti-FLAG quantum dots; in MST with the His-tag labelling kit RED-tris-NTA; also called wild-type Dna2; (His)6-tagged Dna2; source: over-expressed in yeast, purified (Ni-NTA, anti-FLAG-M2 resin)

[4] = molecular target: T3, dna2-D657A (nuclease-dead Dna2) (S. cerevisiae, UniProt P38859, D657A); test: native gel or EMSA; ternary complex of dna2-D657A, RPA and 5 nM 5′-dT(30)-overhanging DNA (3′-overhang and gapped DNA compared); 150 mM KCl, 30 °C, 4% native gel; conditions: both partners purified
T3 construct: Dna2, Saccharomyces cerevisiae, nuclease-dead version; Purified as the other Dna2 variants; FLAG tag used for quantum-dot labelling in DNA Curtains; also called dna2-D657A mutant; source: over-expressed in yeast, purified (Ni-NTA, anti-FLAG-M2 resin)

fold decrease in digestion of long ssDNA (562 nt) under various concentrations of RPA, dna2-AC against Dna2 (Fig. 7a) [1]: 3 fold
stimulation by RPA of the initial 5′-cleavage, dna2-AC against wild-type Dna2 (Supplementary Fig. 7a) [1]: ~2 fold
Kd [2]: 805 ± 22 nM
Kd [3]: 185 ± 7 nM
binding result [4]: binds
B1: RPA (yeast replication protein A, non-tagged heterotrimer) (complex, yeast (S. cerevisiae))
chain 1: MSSVQLSRGDFHSIFTNKQRYDNPTGGVYQVYNTRKSDGANSNRKNLIMISDGIYHMKALLRNQAASKFQSMELQRGDIIRVIIAEPAIVRERKKYVLLVDDFELVQSRADMVNQTSTFLDNYFSEHPNETLKDEDITDSGNVANQTNASNAGVPDMLHSNSNLNANERKFANENPNSQKTRPIFAIEQLSPYQNVWTIKARVSYKGEIKTWHNQRGDGKLFNVNFLDTSGEIRATAFNDFATKFNEILQEGKVYYVSKAKLQPAKPQFTNLTHPYELNLDRDTVIEECFDESNVPKTHFNFIKLDAIQNQEVNSNVDVLGIIQTINPHFELTSRAGKKFDRRDITIVDDSGFSISVGLWNQQALDFNLPEGSVAAIKGVRVTDFGGKSLSMGFSSTLIPNPEIPEAYALKGWYDSKGRNANFITLKQEPGMGGQSAASLTKFIAQRITIARAQAENLGRSEKGDFFSVKAAISFLKVDNFAYPACSNENCNKKVLEQPDGTWRCEKCDTNNARPNWRYILTISIIDETNQLWLTLFDDQAKQLLGVDANTLMSLKEEDPNEFTKITQSIQMNEYDFRIRAREDTYNDQSRIRYTVANLHSLNYRAEADYLADELSKALLA
chain 2: MATYQPYNEYSSVTGGGFENSESRPGSGESETNTRVNTLTPVTIKQILESKQDIQDGPFVSHNQELHHVCFVGVVRNITDHTANIFLTIEDGTGQIEVRKWSEDANDLAAGNDDSSGKGYGSQVAQQFEIGGYVKVFGALKEFGGKKNIQYAVIKPIDSFNEVLTHHLEVIKCHSIASGMMKQPLESASNNNGQSLFVKDDNDTSSGSSPLQRILEFCKKQCEGKDANSFAVPIPLISQSLNLDETTVRNCCTTLTDQGFIYPTFDDNNFFAL
chain 3: MASETPRVDPTEISNVNAPVFRIIAQIKSQPTESQLILQSPTISSKNGSEVEMITLNNIRVSMNKTFEIDSWYEFVCRNNDDGELGFLILDAVLCKFKENEDLSLNGVVALQRLCKKYPEIY
notes: Rfa1, large subunit of yeast RPA; Rfa2, middle subunit of yeast RPA; Rfa3, small subunit of yeast RPA; RFA1, RFA2 and RFA3 in pET11c, construct from the Finkelstein lab; non-tagged; also called wild-type RPA; source: E. coli BL21 codon plus, purified (Affi-Gel Blue, hydroxyapatite, Superdex 200, Mono Q); copies: + +
